US8414883B2, “Parvovirus cancer therapy and combination with chemotherapy” (priority 2007, dated 2013)

Columns and labels:
Format in all cases: cell-based, human
[1] = system: gemcitabine-resistant Panc-1 cells; experiment: MTT cytotoxicity 144 h, gemcitabine-resistant Panc-1; details: Panc-1R; gemcitabine 40 ng/ml for 144 h
Experimental: (§1) For cytotoxicity assessment, cells were seeded in 96-well plates at a density of 2×10^3 cells per well and treated as indicated in the Figure Legends. Cell viability was determined by the colorimetric MTT (3-(4,5-dimethylthiazolyl-2)-2,5-diphenyltetrazolium bromide) assay, as recommended by the manufacturer (Sigma, Deisenhofen, Germany).

Colo357 cells = experiment: MTT cytotoxicity of H-1PV, gemcitabine and their combination, Colo357
Experimental: (§2) Colo357, T3M-4, SU86.86, MiaPaCa-2, Panc-1 and BxPC-3 cells were cultured at a densitiy of 2×10^3 cells per well in 96-well plates, and treated with gemcitabine (0.4-4000 ng/ml), followed 24 h later by H-1PV (1, 10 or 100 RU/cell). Survival was measured using MTT assays performed 72 h after infection, in comparison with mock-treated cultures (100%), and is inversely expressed as cell death rate. The data presented are means from 3 independent experiments carried out in quadruplicates.
as §1
(§3) Means and standard deviations (SD) were calculated from triplicate in vitro experiments. […] Combination (CI) and sensitization (SI) indices were calculated using the following equations: CI=(DH1.c/DH1.a)+(DG.c/DG.a)+(DH1.c*DG.c/DH1.a*DG.a); SIH-1PV=DH1.a/DH1.c; SIgem=DG.a/DG.c, where DH1.c, DH1.a, DG.c and DG.a are the respective EC50/75 doses of H-1PV or gemcitabine, alone (H1.a, G.a) or in combination (H1.c, G.c). […]

[2] = system: gemcitabine-resistant BxPC-3 cells; experiment: MTT cytotoxicity 144 h, gemcitabine-resistant BxPC-3; details: BxPC-3R; gemcitabine 40 ng/ml for 144 h
Experimental: as §1

MiaPaCa-2 cells = experiment: MTT cytotoxicity of H-1PV, gemcitabine and their combination, MiaPaCa-2; details: EC75, H-1PV MOI 1
Experimental: as §2, §1, §3

SU86.86 cells = experiment: MTT cytotoxicity of H-1PV, gemcitabine and their combination, SU86.86
Experimental: as §2, §1, §3

Panc-1 cells = experiment: MTT cytotoxicity of H-1PV, gemcitabine and their combination, Panc-1
Experimental: as §2, §1, §3

T3M-4 cells = experiment: MTT cytotoxicity of H-1PV, gemcitabine and their combination, T3M-4
Experimental: Survival was measured using MTT assays performed 72 h after infection, in comparison with mock-treated cultures (100%), and is inversely expressed as cell death rate. The data presented are means from 3 independent experiments carried out in quadruplicates.
as §1
Means and standard deviations (SD) were calculated from triplicate in vitro experiments. […] The isobologram was created from the data obtained for the combination of the two agents. […] CI=1 represents the conservation isobologram and indicates additive effects. CI values below 1 indicate higher than the expected additive effect (synergy).
Drug sensitivity of parental and resistant cells was assessed in both MTT and clonogenic survival assays.

BxPC3 cells = experiment: MTT cytotoxicity of H-1PV, gemcitabine and their combination, BxPC3
Experimental: as §2, §1, §3

## Nc1ccn([C@@H]2O[C@H](CO)[C@@H](O)C2(F)F)c(=O)n1 [gemcitabine]
[1]
  response of drug-resistant variant to extended incubation with gemcitabine: resisted
Colo357 cells; EC50, H-1PV MOI 1
  SIGem (sensitization index) comb. 1: 1.2
Colo357 cells; EC50, H-1PV MOI 10
  SIGem (sensitization index) comb. 2: 2.5
[2]
  response of drug-resistant variant to extended incubation with gemcitabine: resisted
MiaPaCa-2 cells
  SIGem (sensitization index) comb. 1: 1.7
SU86.86 cells; EC75, H-1PV MOI 1
  SIGem (sensitization index) comb. 1: 2.1
SU86.86 cells; EC75, H-1PV MOI 10
  SIGem (sensitization index) comb. 2: 13.1
Panc-1 cells; EC50, H-1PV MOI 1
  SIGem (sensitization index) comb. 1: 2.0
Panc-1 cells; EC50, H-1PV MOI 10
  SIGem (sensitization index) comb. 2: 6.7
T3M-4 cells; EC75, H-1PV MOI 1
  SIGem (sensitization index) comb. 1: 1.0
T3M-4 cells; EC75, H-1PV MOI 10
  SIGem (sensitization index) comb. 2: 1.7
BxPC3 cells; EC50, H-1PV MOI 1
  SIGem (sensitization index) comb. 1: 1.3
BxPC3 cells; EC50, H-1PV MOI 10
  SIGem (sensitization index) comb. 2: 3.6
